# Antibody variant affinities, Ab-14 light chain, assay B

Values reported by Li et al. 2023, doi:10.1038/s41467-023-39022-2 (FLAb copy).

Target: peptide PDVDLGDISGINAS, taken from heptad repeat 2 (HR2) of SARS-CoV-2 spike.

The variants keep the heavy chain, the linker and the frameworks of Ab-14 (scFv order VH, a 15-residue (Gly4Ser)3 linker, VL).
VH: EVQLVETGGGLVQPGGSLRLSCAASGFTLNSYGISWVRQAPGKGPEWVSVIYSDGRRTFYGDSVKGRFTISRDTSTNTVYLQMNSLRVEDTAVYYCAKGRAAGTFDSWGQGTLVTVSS
VL: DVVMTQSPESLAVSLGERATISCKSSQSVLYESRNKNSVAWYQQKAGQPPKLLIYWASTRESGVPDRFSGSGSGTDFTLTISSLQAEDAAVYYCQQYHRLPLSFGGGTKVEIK

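Designed CDR sequences, proposed from the first random library and measured here. Their group label is 14L_GP_Gen (GP: Gaussian process model; Gen: genetic algorithm; a sequence that several methods proposed may carry one label only). The assay is AlphaSeq: two haploid yeast populations carry antibody and antigen on their surface. After mating in shaken culture at 30 °C for 16 h, diploids were selected and their barcode pairs sequenced. A regression on co-assayed BCL2-family reference pairs converts the normalised counts of each replicate to an apparent Kd. Mating was done six times.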

Substitutions are numbered in sequence along the VL above, starting at 1 (not Kabat).
Numbers give log10(Kd / nM), so 0 is 1 nM and 3 is 1 µM. Smaller is tighter.
In the paper, a design with two or fewer of six values counts as a poor binder.

The variant S25L Q27G V29M W56N showed -0.26, -0.34, -0.19, -0.46, -0.48, -0.39 (controls 0 of 18).
The variant S25L V29W K36W W56N showed 0.24, 0.29, 0.02, -0.14, 0.02, 0.24 (controls 1 of 18).
The variant S25F S26E W56N E61L showed -0.09, -0.04, -0.20, -0.11, -0.25, -0.02 (controls 1 of 18).
The variant S25V S28L V29G W56N showed -0.06, -0.13, -0.18, -0.25, -0.28, -0.05 (controls 5 of 18).
The variant S25F V29E W56G showed -0.16, -0.24, -0.40, -0.51, -0.51, -0.23 (controls 1 of 18).
The variant S25L V29D L30D W56E showed 0.31, 0.14, 0.00, 0.09, 0.04, 0.21 (controls 0 of 18).
The variant S25L W56N S62K showed -0.12, -0.36, -0.52, -0.57, -0.36, -0.09 (controls 0 of 18).
The variant S25L L30G W56A showed 0.20, -0.14, 0.05, -0.26, -0.17, 0.12 (controls 1 of 18).
The variant S25M V29W W56N showed 0.39, 0.04, 0.23, 0.05, 0.02, 0.23 (controls 0 of 18).
The variant S25L S26Q V29W S38A W56N showed -0.01, 0.05, -0.09, -0.28, -0.07, 0.09 (controls 0 of 18).
The variant S25L N35A W56E showed -0.41, -0.66, -0.60, -0.71, -0.54, -0.57 (controls 0 of 18).
The variant S25L E32Q S33D W56N T59Q showed 0.37, 0.13, 0.03, 0.06, 0.02, 0.17 (controls 3 of 18).
The variant S25L E32Q W56E showed 0.07, -0.27, -0.16, -0.33, -0.29, -0.05 (controls 1 of 18).
The variant S25W W56G showed 0.47, 0.08, 0.49, -0.24, 0.41, 1.02 (controls 0 of 18).
The variant S25L S28L V29W N35M W56N showed 0.88, 0.62, 0.33, 0.46, 0.48, 0.75 (controls 3 of 18).
The variant S25L S26Q V29Q L30E W56N T59Q showed 0.34, 0.03, 0.01, -0.24, -0.22, -0.02 (controls 0 of 18).
The variant S25L S26Q V29W L30Q W56N showed 0.65, 0.61, 0.67, 0.54, 0.92, 1.07 (controls 0 of 18).
The variant S25L S26Y V29D W56H showed -0.03, -0.14, -0.16, -0.39, -0.27, -0.09 (controls 2 of 18).
The variant S25L S26Q W56H E61M showed 0.62, 0.90, 0.60, 0.71, 0.21, 0.53 (controls 2 of 18).
The variant S25V S26Q V29Y W56N showed -0.06, -0.24, -0.11, -0.37, -0.11, -0.12 (controls 0 of 18).
The variant S25L S26V V29E W56N showed 0.37, 0.35, 0.25, 0.24, 0.34, 0.45 (controls 1 of 18).
The variant S25L S26P V29W W56N showed 0.12, -0.24, -0.17, -0.20, -0.03, 0.14 (controls 3 of 18).
The variant S25L N37M W56N E61M showed 0.03, -0.07, -0.13, -0.18, -0.22, 0.16 (controls 1 of 18).
The variant S25L V29M W56N S62M showed 0.12, -0.06, -0.10, -0.22, -0.02, -0.17 (controls 1 of 18).
The variant S25L V29H W56N E61M showed 0.12, -0.01, -0.23, -0.10, -0.06, 0.15 (controls 1 of 18).
The variant S25L S26P V29Y W56H showed 0.09, -0.50, -0.23, -0.36, -0.34, -0.36 (controls 0 of 18).
The variant S25L V29W S38A W56E showed 0.04, -0.14, -0.21, -0.24, -0.09, 0.11 (controls 3 of 18).
The variant S25L Q27P V29D W56E showed -0.06, -0.03, -0.04, -0.59, -0.37, -0.12 (controls 0 of 18).
The variant L30W W56E S62Q showed 0.81, 0.39, 0.28, 0.28, 0.18, 0.41 (controls 1 of 18).
The variant Q27M V29E W56E showed 0.37, 0.65, 0.06, -0.11, 0.07, 0.15 (controls 0 of 18).
The variant S25L S26Q W56E showed -0.17, -0.32, -0.37, -0.46, -0.41, -0.24 (controls 2 of 18).
The variant S25I V29H W56N showed 0.25, -0.07, -0.05, -0.29, -0.14, 0.27 (controls 1 of 18).
The variant S26Q V29E W56N T59Q showed 0.12, -0.19, 0.01, 0.08, 0.25, 0.12 (controls 0 of 18).
The variant S25L Q27W V29W W56G showed -0.19, -0.06, -0.24, -0.32, -0.10, -0.09 (controls 1 of 18).
The variant S25L S26Y S38N W56G showed -0.61, -0.53, -0.64, -0.53, -0.53, -0.32 (controls 1 of 18).
The variant S25L W56E S62Q showed -0.40, -0.49, -0.84, -0.83, -0.94, -0.62 (controls 0 of 18).
The variant S25L W56E E61M Q96A showed 1.11, 1.08, 0.70, 0.64, 0.70, 0.88 (controls 2 of 18).
The variant S25L S26V W56N T59Y showed 0.31, 0.21, 0.16, 0.03, 0.06, 0.23 (controls 5 of 18).
The variant S25L N35M W56H showed 0.13, -0.02, 0.00, -0.04, -0.02, 0.19 (controls 1 of 18).
The variant K24F S25V W56N showed -0.12, -0.20, -0.27, -0.32, -0.31, 0.03 (controls 3 of 18).
The variant S25V V29Q S38N W56D showed -0.31, -0.45, -0.50, -0.59, -0.69, -0.41 (controls 1 of 18).
The variant S25L S26P V29M W56S T59Q showed -0.27, -0.36, -0.24, -0.47, -0.44, -0.12 (controls 1 of 18).
The variant S25L V29T W56H E61C showed 0.66, 0.38, 0.18, 0.58, 0.32, 0.58 (controls 0 of 18).
The variant S25L V29F W56E Q96D showed 0.82, 0.37, 0.51, 0.02, 0.59, 0.90 (controls 0 of 18).
The variant S25L V29E L30W W56N showed -0.12, -0.42, -0.63, -0.67, -0.42, -0.52 (controls 1 of 18).
The variant S25L S26P V29M L30P W56N showed 0.01, 0.01, -0.12, -0.33, 0.02, -0.19 (controls 1 of 18).
The variant S25L V29Q W56N S103E showed 0.03, 0.06, -0.01, -0.27, -0.16, -0.17 (controls 3 of 18).
The variant S25F S26M W56G showed -0.05, -0.15, -0.14, -0.27, -0.29, 0.25 (controls 1 of 18).

Picked from the list: the 7 lowest averages where every replicate gave a value.

{"changes": "S25L W56E S62Q", "log10 Kd, replicates": "-0.40, -0.49, -0.84, -0.83, -0.94, -0.62", "signal with controls": "0 of 18"}
{"changes": "S25L N35A W56E", "log10 Kd, replicates": "-0.41, -0.66, -0.60, -0.71, -0.54, -0.57", "signal with controls": "0 of 18"}
{"changes": "S25L S26Y S38N W56G", "log10 Kd, replicates": "-0.61, -0.53, -0.64, -0.53, -0.53, -0.32", "signal with controls": "1 of 18"}
{"changes": "S25V V29Q S38N W56D", "log10 Kd, replicates": "-0.31, -0.45, -0.50, -0.59, -0.69, -0.41", "signal with controls": "1 of 18"}
{"changes": "S25L V29E L30W W56N", "log10 Kd, replicates": "-0.12, -0.42, -0.63, -0.67, -0.42, -0.52", "signal with controls": "1 of 18"}
{"changes": "S25L Q27G V29M W56N", "log10 Kd, replicates": "-0.26, -0.34, -0.19, -0.46, -0.48, -0.39", "signal with controls": "0 of 18"}
{"changes": "S25F V29E W56G", "log10 Kd, replicates": "-0.16, -0.24, -0.40, -0.51, -0.51, -0.23", "signal with controls": "1 of 18"}

Three control strains display no target. For all light chain designs, 4% of the pairings with them gave a signal, with a median of 2.64 and one signal in twenty below 1.59, so weak values seen in few replicates may be background. The control count says in how many pairings with the empty strains this scFv gave a signal.
Values of this round are not directly comparable with the first-round values of the same sequences.
Of ten entries with the parent sequence, four were seen in most replicates (averages 0.34 to 2.37), three in one and three in none, so single entries are noisy.